This series relates to blood-brain barrier. In words: Blood-to-brain transport, in vivo multiple time regression (MTR) analysis. The settings on record: negative control, value used as V0 for spilanthol.

The record followed here is publication PMC4907212, “Mucosal and blood-brain barrier transport kinetics of the plant N-alkylamide spilanthol using in vitro and in vivo models” (BMC Complementary and Alternative Medicine, 2016).

For “bovine serum albumin [BSA, reference compound]”, the “vascular brain distribution volume (V0)” value was determined as 14.8 µL/g.
